Reference: patent US20020177166A1, “Binding motif of a receptor” (MEDVET SCIENCE PTY.LTD., priority 2000, published 2002)

Experiments:
[1] = test system: Ser585 phosphorylation of βc in CTL-EN cells; experiment: Ser585 phosphorylation of βc in CTL-EN cells expressing IL-3Ra and wtβc, immunoblot; format: cell-based; details: 50 ng/ml IL-3, 50 μM forskolin or 100 μM dibutyryl cAMP
Method: CTL-EN cells expressing IL-3Ra and either wtβc or βcHSRSLP→EFAAAA were washed, starved for 4 hours in DMEM containing 0.1% FCS and then stimulated with 50 ng/ml IL-3 for the indicated times. Cells were then lysed and the βc immunoprecipitated (7×10^7 cells/IP) with the 1C1 anti-βc specific mAb. Immunoprecipitates were divided and 80% or 20% were separately run on SDS-PAGE and transferred to nitrocellulose filters. (a) 80% of the immunoprecipitates were probed with the anti-phospho-Ser585βc antibody, the filters stripped, and reprobed with the 1C1 anti-βc mAb. 20% or the immunoprecipitates were probed with the 4G10 anti-phosphotyrosine antibody. (b) Regulation of 14-3-3 association with βc following IL-3 stimulation. […]
Peptide competitions were also performed using 200 mM peptides containing the indicated sequences. b) The ability of PKA and CKII to phosphorylate Ser585 of hisβc445-881 was examined by immunoblot analysis using the anti-phospho-Ser585βc antibodies. […] Ser585 phosphorylation of βc was determined using the anti-phospho-Ser585 antibodies (top panel). […]
The regulation of βcSer585 phosphorylation in response to IL-3 stimulation was then examined in these cell lines using anti-phospho-Ser585βc antibodies. […] Tyrosine phosphorylation of βc was detected for both the wtβc and the βcHSRSLP→EFAAAA mutant (FIG. 11a). […]

PI 3-kinase = PI 3-kinase lipid kinase assay on anti-phosphotyrosine immunoprecipitates of CTL-EN cells; format: cell-based

B1: IL-3: recombinant human IL-3 produced in E. coli (protein, UniProt P08700 20-152, looked up)
Interleukin-3: APMTQTTPLKTSWVNCSNMIDEIITHLKQPPLPLLDFNNLNGEDQDILMENNLRRPNLEAFNRAVKSLQNASAIESILKNLLPCLPLATAAPTRHPIHIKDGDWNEFRRKLTFYLKTLENAQAQQTTLSLAIF
Ser585 phosphorylation of βc after stimulation [1]: upregulated; also recorded: increased Ser585 phosphorylation
PI 3-kinase activity (PI 3-kinase; CTL-EN wtβc, 50 ng/ml IL-3): rapid and transient activation of PI 3-kinase activity
PI 3-kinase activity (PI 3-kinase; CTL-EN βcHSRSLP→EFAAAA, IL-3): No PI 3-kinase activity was observed
PI 3-kinase activity (PI 3-kinase; CTL-EN βcS585G, IL-3): No PI 3-kinase activity was observed

“Also recorded” adds a separate entry of the source.
